The values below come from BindingDB's records for PubMed 35944850 (Vanderbilt University, 2022).

Sequences of proteins named here, by UniProt entry; tags and fusion partners are left off.
UniProt Q14831, whole entry: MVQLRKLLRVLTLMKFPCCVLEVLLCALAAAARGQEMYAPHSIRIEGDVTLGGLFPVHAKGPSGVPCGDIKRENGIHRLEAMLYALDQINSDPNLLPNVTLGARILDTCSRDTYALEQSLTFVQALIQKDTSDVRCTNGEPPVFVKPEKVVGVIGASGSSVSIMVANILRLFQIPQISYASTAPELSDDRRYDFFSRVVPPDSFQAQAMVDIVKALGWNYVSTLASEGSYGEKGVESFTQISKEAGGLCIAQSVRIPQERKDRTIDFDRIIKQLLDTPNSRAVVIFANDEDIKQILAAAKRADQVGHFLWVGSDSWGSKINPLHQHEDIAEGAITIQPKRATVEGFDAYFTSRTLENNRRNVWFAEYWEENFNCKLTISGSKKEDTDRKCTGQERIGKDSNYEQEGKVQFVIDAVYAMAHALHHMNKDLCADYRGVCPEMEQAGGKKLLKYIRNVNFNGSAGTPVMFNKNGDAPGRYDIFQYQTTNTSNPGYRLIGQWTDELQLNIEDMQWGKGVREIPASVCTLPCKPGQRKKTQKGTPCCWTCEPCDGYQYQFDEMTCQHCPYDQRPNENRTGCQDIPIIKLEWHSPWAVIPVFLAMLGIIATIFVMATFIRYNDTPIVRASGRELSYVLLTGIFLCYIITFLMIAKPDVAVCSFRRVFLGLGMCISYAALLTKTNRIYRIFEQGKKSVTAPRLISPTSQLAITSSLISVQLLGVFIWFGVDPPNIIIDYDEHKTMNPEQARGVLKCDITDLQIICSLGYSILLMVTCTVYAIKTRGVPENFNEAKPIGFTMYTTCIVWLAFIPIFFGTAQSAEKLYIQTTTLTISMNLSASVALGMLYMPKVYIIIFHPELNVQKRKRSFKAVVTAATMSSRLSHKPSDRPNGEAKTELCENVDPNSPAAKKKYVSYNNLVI

This assay addresses Metabotropic glutamate receptor 7 (Homo sapiens, UniProt Q14831).

As for `CCCOc1ccc(C(=O)Nc2cc(OC(F)(F)F)ccc2-n2cncn2)cc1OC`, half-maximal inhibition (IC50) required 1.58 µM.
